Assay results as given in BindingDB's records for doi:10.1007/bf02311185 (Case Western Reserve University, 1995).

Chains of the proteins cited; added tags and fusions are not shown.
UniProt P14842, whole entry: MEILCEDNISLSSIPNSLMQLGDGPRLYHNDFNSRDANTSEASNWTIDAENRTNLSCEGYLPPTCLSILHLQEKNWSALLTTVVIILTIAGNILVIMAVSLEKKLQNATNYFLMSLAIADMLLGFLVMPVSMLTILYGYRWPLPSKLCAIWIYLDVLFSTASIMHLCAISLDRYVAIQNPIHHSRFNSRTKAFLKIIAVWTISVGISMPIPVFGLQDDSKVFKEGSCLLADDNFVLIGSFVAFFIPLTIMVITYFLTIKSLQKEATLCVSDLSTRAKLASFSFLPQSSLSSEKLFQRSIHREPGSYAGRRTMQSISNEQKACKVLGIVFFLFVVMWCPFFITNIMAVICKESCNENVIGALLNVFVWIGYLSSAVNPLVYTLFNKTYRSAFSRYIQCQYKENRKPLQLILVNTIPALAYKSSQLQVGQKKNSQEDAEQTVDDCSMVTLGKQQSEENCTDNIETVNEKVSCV

Molecular target: 5-hydroxytryptamine receptor 2A (Rattus norvegicus, UniProt P14842)

Ki: 5.4 nM
SMILES: Cc1cc2c(s1)=Nc1ccccc1NC=2N1CCN(C)CC1 [CAS_132539-06-1]
